Earlier results as cited in patent publication US20070021352A1, “PREVENTION AND TREATMENT OF HEARING DISORDERS” (Cypress Bioscience, Inc., priority 2005, published 2007).

Tested on: cochlea
Settings: Guinea pig; perfusion into the cochlea via an osmotic minipump; acoustic trauma

SMILES: Nc1nc2ccc(OC(F)(F)F)cc2s1 [riluzole, 2-amino-6-trofluoromethoxybenzothiazole]
- protection of cochlea from noise-induced damage (mitochondrial damage, cytochrome c translocation, DNA fragmentation, hair cell degeneration): prevents mitochondrial damage and subsequent translocation of cytochrome c, DNA fragmentation and hair cell degeneration
